Laboratory results taken from PubChem BioAssay AID434977 (Johns Hopkins Ion Channel Center, 2010).
The list shows a part of the results, in another mix than the full data. Activity calls are given as the source filed them.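 The calls were made as follows: active = calcium signal rise above buffer-control mean plus 5 SD in both duplicates, and also a hit in the primary screen; inactive = the rest.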

What follows are molecules tested against Short transient receptor potential channel 4 (Mus musculus) (UniProt Q9QUQ5) (assay: calcium flux activators in TRPC4/5HT1a cells, counter-screen for TRPC4 activator project, cell-based, second counter screen, HEK293 TRPC4/5HT1a, Fluo-4 (AID 434977)). Settings: Fluo-4 calcium flux, at 10 µM.

SMILES	outcome
CCN(CC)CCCOC(=O)C(O)(c1ccccc1)c1ccccc1	inactive
CN(C)CCOC(=O)C(O)(c1ccccc1)C1CCCC1 (configuration not stated)	inactive
